Assay results: PubChem BioAssay AID1778 (Sanford-Burnham Center for Chemical Genomics, 2009)
Several values for one entry are separate records, joined by “and”; a condition that tells them apart may be missing. Identical values can stand only once. Some of the results follow. Potency and affinity values are given separately. Activity calls are given as the source filed them. Cut-off read from the data, not from the text of the source: active = inhibition above about 50%; inactive = the rest.

Chains of the proteins cited; added tags and fusions are not shown. Lines headed by an entry give the natural chain unless they say otherwise; changes in a name come on top.
UniProt P41145: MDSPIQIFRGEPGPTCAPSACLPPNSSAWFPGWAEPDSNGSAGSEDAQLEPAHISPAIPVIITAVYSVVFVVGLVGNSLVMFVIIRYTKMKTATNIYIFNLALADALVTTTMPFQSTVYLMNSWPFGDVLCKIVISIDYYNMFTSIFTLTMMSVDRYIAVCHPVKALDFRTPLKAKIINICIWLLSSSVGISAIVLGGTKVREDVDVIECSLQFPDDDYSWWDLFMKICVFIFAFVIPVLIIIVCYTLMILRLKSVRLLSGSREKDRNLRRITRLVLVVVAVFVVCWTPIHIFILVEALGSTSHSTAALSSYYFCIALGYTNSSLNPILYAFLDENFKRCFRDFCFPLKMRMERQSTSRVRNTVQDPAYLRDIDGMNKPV

Target: Kappa-type opioid receptor (Homo sapiens) (UniProt P41145)
Assay: kappa opioid receptor blockers – cell-based, luminescence, uHTS (AID 1778)
Settings: KOR beta-arrestin recruitment, antagonist mode, at 10 µM, stronger effect = higher value

| Structure (SMILES) | inhibition |
| --- | --- |
| COc1ccc(N/C(=N/P(=O)(N2CCOCC2)N2CCOCC2)N2CCOCC2)cc1 | inactive: 6.2% |
| CN(C)C(=O)Cn1c(SCC(=O)NCc2ccc3c(c2)OCO3)nc2ccccc21 | inactive: -83.1% |
| c1ccc2c(c1)nc1n2CCN1CCNC1CCCCC1 | inactive: -40.7% |
| Cn1c(=O)c2ncn(CC(=O)Nc3cccc(-c4nc5ccccc5s4)c3)c2n(C)c1=O | inactive: -52.6% |
| Cc1ccc(Cn2nnnc2CN2CCC(n3nnc4cc(C(F)(F)F)ccc43)CC2)cc1 | inactive: -13.1% |
| Nc1nonc1-c1nc2ccccc2n1CC(=O)NC1CCCC1 | inactive: -11.8% |
| O=C(O)CCc1nn2c3ccccc3n(CCN3CCCCC3)c2nc1=O | inactive: -12.1% |
| Cc1cnc(NC(=O)Cn2cnc3c2c(=O)n(C)c(=O)n3C)s1 | inactive: -18.3% |
| CC(C)(C)NC(=O)Cn1c(SCC(=O)NC2CC2)nc2ccccc21 | inactive: 3.2% |
| N=c1n(CCN2CCCCC2)c2ccccc2n1CC(O)c1ccc(Cl)c(Cl)c1 (stereo not given) | inactive: -68.4% |
| CCN(CC)c1ccc(CNc2nc3ccccc3n2CCN2CCOCC2)cc1 | inactive: -23.7% |
| Cc1ccc(S(=O)(=O)Nc2ccc(Cl)cc2)cc1NC(=O)Cn1cnc2c1c(=O)n(C)c(=O)n2C | inactive: -16.4% |
| CC(C)NC(=O)CSc1nc2ccccc2n1CC(=O)N(C(C)C)C(C)C | inactive: 25.4% |
| Cc1ccc2c(c1)C1CN(C)CCC1N2C(=O)c1ccco1 (stereo not given) | inactive: -30.6% |
| O=C1Nc2ccccc2C12Nc1ccccc1-c1nc3ccccc3n12 (stereo not given) | inactive: 11.7% |
| CC(NC(=O)[C@H](C)NC(=O)N1CCn2c1nc1ccccc12)c1ccccc1 (stereo not given in full) | inactive: -12.8% |
| Cc1ccccc1NC(=O)Cn1c(=O)n(C)c2ccccc21 | inactive: -31.3% |
| Cc1ccccc1OCC(O)Cn1c(=N)n(CCN2CCOCC2)c2ccccc21 (stereo not given) | inactive: 2% and inactive: -10.9% |
| CCN(CC)CCn1c(NCc2ccc3c(c2)OCO3)nc2ccccc21 | inactive: -5.4% |
| O=C(NCc1ccccc1)N1CCn2c(nc3ccccc32)C1 | inactive: 15.4% |

| Structure (SMILES) | inhibition |
| --- | --- |
| N=c1n(CCCOc2ccc(Br)cc2)c2ccccc2n1CC(N)=O | inactive: 8.5% |
| COc1ccc(NC(=O)Cn2c(NCC(C)O)nc3ccccc32)cc1Cl (stereo not given) | inactive: -15.8% |
| O=C(Cn1c2[n+](c3ccc(C(F)(F)F)cc31)CCCCC2)Nc1ccc(Br)cc1 | inactive: 0.8% |
| CC(O)c1nc2ccccc2n1CC(=O)Nc1ccc(F)cc1Cl (stereo not given) | inactive: -14.4% |
| CN1CCC(N(C)c2nc(-c3ccc([N+](=O)[O-])cc3)nc3ccccc23)CC1 | inactive: 20.6% |
| O=C(Nc1ccc(F)cc1)N1CCn2c(nc3ccccc32)C1 | inactive: -13.9% |
| C[C@H](NC(=O)N1CCn2c1nc1ccccc12)C(=O)NCc1ccco1 | inactive: -20.5% |
| O=[As](O)(c1ccc(O)cc1)c1ccccc1O | inactive: 2.3% |
| COc1ccc(NC(=O)N2CCn3c2nc2ccccc23)cc1 | inactive: 7% |
| C[As](=O)(O)c1cccc(C(=O)O)c1 | inactive: -6.4% |
| CN1CCN(c2nc3c(c(=O)[nH]c(=O)n3C)n2CC(N)=O)CC1 | inactive: -7.7% |
| CSc1nc2ccccc2n1CC(=O)Nc1c(C)cccc1C | inactive: 9.6% |
| Cc1ccc(SCc2nc3ccccc3n2CC(=O)Nc2c(C)cccc2C)cc1 | inactive: 8.2% |
| Cn1c(=O)c2c(ncn2CC(=O)N/N=C/C(Br)=C/c2ccccc2)n(C)c1=O | inactive: 10.2% |
| Cc1ccc(S(=O)(=O)Nc2ccc3c(c2)nc2n3CCN(Cc3ccccc3)C2)cc1 | inactive: 47.2% |
| Cc1ccc(OP(=O)(Nc2ccc([N+](=O)[O-])cn2)Oc2ccc(C)cc2)cc1 | inactive: 24.2% |
| Fc1ccc2c(c1)nnn2C1CCN(Cc2ccccc2)CC1 | inactive: 1.9% |
| Brc1ccc(CNc2nc3ccccc3n2CCN2CCCCC2)cc1 | inactive: 17.7% |
| COc1ccc(/C=N/NC(=O)Cn2c(Cc3ccc(OC)c(OC)c3)nc3ccccc32)cc1 | inactive: 3.9% |
| COCCn1c(=O)c2c(nc3n2CCN3c2ccc(C)cc2)n(C)c1=O | inactive: 14.1% |

| Structure (SMILES) | inhibition |
| --- | --- |
| CC(Cc1ccc(O)cc1)NCC(O)c1cc(O)cc(O)c1 (stereo not given) | inactive: 0.7% |
| Cc1ccc2nc3c(c(C)c2c1)CC(C(Cl)Cl)S3 (stereo not given) | inactive: 6.9% |
| COc1ccc(CCNC(=O)[C@H](CCSC)NC(=O)N2CCn3c2nc2ccccc23)cc1OC | inactive: -5.9% |
| O=C(Cn1c(C(F)(F)F)nc2ccccc21)N/N=C/c1ccco1 | inactive: 1.7% |
| CCOC(=O)Cn1c(=O)c2c(nc3n2CCN3Cc2ccccc2)n(C)c1=O | inactive: -6.7% |
| CN(C)CCn1cnc2c1c(=O)n(C)c(=O)n2C | inactive: -9.5% |
| Cn1c(=O)c2c(ncn2CC(=O)N2CCN(c3cccc(Cl)c3)CC2)n(C)c1=O | inactive: -3.5% |
| Cc1ccc2c(c1)C1CN(C)CCC1N2C(=O)CCCN1C(=O)c2cccc3cccc(c23)C1=O (stereo not given) | inactive: 17.7% |
| CC(C)NC(=O)Cn1c(SCC(=O)c2ccc(F)cc2)nc2ccccc21 | inactive: -13.6% |
| CCC(=O)Nc1nc2ccccc2n1CCN(CC)CC | inactive: 16.8% |
| COc1ccccc1NC(=O)N1CCn2c(nc3ccccc32)C1 | inactive: 3.6% |
| Cc1nc2ccccc2n1CC(=O)NCCN1CCCC1 | inactive: 7.9% |
| CC1(C)c2ccccc2N2CCC(=O)NC21/C=C/c1ccco1 (stereo not given) | inactive: -22.1% |
| Cc1ccsc1/C=N/NC(=O)Cn1cnc2ccccc21 | inactive: 5.3% |
| ClCCSc1nnc(-c2cccnc2)o1 | inactive: 15.2% |
| Oc1ccccc1CNc1nc2ccccc2n1CCN1CCCCC1 | inactive: -27.8% |
| Cc1nc2ccccc2n1C1CCN(Cc2nnnn2CCc2ccccc2)CC1 | inactive: -1.3% |
| CC(C)c1ccc(OP(=O)(Nc2ccccn2)Oc2ccccc2F)cc1 (stereo not given) | inactive: 26.3% |
| c1csc(CNc2nc3ccccc3n2CCN2CCOCC2)c1 | inactive: -50.3% |
| CCC(C(=O)NC1CCCCC1)n1c(SCc2ccccc2F)nc2ccncc21 (stereo not given) | inactive: 14.6% |
